Measured values: patent publication US20240390388A1, “TRICYCLIC COMPOUNDS AND USE THEREOF” (MEDSHINE DISCOVERY INC., priority 2021, published 2024)

By UniProt entry, the sequences of proteins in these tests, tags left out. Where a name states a change or a piece, a line headed by the entry shows the natural chain unless it says otherwise.
UniProt P42336, whole entry: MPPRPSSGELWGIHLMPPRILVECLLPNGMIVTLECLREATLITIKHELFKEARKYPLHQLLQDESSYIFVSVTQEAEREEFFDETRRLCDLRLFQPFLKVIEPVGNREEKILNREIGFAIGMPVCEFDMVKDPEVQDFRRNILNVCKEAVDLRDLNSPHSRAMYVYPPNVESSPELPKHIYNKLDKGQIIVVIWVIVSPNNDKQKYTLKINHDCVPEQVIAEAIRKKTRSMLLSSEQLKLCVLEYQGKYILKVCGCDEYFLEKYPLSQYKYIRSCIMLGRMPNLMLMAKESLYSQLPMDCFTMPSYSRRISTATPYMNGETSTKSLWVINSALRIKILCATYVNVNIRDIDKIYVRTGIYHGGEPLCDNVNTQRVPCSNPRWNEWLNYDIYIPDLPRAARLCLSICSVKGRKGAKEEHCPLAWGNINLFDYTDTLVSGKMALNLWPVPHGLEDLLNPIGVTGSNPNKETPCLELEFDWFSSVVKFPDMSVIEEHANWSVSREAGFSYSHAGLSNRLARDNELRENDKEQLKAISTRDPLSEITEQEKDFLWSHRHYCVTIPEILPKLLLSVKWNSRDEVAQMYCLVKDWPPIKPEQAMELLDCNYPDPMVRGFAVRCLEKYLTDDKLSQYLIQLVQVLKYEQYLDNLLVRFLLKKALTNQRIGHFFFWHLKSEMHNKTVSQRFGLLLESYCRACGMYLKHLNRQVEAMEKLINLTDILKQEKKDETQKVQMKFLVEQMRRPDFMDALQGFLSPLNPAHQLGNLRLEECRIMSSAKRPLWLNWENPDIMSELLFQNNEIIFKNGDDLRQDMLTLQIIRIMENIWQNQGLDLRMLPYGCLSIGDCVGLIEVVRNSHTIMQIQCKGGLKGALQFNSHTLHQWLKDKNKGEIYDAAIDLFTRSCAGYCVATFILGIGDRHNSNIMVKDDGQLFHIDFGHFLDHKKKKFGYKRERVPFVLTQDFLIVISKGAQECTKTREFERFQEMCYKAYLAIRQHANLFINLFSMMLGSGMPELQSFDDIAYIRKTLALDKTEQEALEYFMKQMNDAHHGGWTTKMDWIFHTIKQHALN
UniProt P48736, whole entry: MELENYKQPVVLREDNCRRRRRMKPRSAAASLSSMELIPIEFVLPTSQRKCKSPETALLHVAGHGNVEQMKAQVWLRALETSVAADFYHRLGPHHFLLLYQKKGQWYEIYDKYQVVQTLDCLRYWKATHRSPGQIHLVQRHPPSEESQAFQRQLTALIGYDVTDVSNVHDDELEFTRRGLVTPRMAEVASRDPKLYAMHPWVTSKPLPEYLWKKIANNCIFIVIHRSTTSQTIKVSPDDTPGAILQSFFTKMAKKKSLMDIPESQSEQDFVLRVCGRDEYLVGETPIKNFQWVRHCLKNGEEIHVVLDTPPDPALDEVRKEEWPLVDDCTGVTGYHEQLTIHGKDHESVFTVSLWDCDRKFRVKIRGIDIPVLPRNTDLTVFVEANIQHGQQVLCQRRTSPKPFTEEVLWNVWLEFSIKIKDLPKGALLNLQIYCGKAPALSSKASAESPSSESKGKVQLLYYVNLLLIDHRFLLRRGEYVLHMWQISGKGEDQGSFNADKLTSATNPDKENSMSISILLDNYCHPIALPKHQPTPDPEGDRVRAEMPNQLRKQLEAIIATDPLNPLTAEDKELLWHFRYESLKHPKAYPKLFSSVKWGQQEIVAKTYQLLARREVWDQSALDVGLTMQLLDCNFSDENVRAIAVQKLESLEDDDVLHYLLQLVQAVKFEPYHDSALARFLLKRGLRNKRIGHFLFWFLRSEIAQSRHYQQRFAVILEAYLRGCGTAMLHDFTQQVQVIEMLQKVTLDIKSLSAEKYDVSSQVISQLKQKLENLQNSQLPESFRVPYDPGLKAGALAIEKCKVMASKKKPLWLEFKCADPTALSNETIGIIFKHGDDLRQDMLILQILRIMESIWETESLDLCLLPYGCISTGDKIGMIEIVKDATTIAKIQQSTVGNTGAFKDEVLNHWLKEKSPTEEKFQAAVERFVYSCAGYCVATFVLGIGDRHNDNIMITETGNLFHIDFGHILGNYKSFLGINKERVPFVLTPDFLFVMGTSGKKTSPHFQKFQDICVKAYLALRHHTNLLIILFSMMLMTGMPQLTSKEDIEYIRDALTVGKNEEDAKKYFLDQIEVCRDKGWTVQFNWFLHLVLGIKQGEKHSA
UniProt O00329, whole entry: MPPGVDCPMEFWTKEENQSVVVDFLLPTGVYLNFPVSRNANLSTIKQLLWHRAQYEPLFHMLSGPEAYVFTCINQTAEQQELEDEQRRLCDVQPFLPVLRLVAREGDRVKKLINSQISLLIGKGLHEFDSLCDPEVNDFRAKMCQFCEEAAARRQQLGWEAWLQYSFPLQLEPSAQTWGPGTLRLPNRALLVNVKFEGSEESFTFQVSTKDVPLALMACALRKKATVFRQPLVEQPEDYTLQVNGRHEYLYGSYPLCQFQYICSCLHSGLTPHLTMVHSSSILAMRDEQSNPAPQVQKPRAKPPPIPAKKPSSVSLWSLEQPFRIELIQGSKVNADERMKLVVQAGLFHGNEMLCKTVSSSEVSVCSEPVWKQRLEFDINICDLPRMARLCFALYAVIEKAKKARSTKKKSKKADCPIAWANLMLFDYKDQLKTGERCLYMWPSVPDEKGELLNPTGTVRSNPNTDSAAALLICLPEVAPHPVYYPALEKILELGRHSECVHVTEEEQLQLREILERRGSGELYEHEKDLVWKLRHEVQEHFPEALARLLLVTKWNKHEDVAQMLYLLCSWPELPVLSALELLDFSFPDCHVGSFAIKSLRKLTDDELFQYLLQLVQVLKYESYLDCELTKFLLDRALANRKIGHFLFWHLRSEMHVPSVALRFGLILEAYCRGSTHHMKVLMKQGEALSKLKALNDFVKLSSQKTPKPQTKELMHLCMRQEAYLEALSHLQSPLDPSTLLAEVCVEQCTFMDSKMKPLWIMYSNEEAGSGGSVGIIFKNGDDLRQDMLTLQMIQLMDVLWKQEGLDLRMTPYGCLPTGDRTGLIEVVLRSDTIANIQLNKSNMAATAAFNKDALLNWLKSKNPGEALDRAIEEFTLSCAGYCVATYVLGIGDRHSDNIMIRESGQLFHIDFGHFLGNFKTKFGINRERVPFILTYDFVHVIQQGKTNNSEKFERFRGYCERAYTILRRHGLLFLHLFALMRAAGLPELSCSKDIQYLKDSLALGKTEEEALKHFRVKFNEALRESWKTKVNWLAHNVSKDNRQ
UniProt P42338, whole entry: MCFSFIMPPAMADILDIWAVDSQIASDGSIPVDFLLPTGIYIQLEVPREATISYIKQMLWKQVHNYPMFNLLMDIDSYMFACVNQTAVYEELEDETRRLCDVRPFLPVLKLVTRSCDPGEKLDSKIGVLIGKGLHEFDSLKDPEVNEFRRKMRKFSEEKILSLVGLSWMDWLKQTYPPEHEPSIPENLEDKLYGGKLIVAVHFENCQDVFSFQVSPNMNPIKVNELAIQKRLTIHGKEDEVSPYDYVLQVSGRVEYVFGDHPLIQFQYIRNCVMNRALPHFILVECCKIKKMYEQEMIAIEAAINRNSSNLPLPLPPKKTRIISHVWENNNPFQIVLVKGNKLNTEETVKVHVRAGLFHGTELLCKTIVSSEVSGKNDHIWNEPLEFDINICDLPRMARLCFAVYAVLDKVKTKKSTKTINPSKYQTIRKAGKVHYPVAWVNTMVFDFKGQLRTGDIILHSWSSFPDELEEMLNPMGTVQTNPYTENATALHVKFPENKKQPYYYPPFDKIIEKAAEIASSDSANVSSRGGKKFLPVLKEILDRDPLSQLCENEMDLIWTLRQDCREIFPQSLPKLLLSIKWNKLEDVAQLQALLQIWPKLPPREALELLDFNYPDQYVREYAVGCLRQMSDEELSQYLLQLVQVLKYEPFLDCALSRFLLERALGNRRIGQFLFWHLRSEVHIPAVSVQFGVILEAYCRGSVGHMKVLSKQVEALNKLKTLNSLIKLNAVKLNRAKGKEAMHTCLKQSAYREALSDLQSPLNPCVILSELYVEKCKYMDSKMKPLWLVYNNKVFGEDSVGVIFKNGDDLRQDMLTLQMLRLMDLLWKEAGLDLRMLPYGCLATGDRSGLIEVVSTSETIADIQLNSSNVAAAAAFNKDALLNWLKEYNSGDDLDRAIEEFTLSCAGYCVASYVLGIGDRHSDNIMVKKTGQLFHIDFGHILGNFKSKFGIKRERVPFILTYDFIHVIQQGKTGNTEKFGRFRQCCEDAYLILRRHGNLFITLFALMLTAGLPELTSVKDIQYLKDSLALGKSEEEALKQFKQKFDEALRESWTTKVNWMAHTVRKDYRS
UniProt P27986, whole entry partner: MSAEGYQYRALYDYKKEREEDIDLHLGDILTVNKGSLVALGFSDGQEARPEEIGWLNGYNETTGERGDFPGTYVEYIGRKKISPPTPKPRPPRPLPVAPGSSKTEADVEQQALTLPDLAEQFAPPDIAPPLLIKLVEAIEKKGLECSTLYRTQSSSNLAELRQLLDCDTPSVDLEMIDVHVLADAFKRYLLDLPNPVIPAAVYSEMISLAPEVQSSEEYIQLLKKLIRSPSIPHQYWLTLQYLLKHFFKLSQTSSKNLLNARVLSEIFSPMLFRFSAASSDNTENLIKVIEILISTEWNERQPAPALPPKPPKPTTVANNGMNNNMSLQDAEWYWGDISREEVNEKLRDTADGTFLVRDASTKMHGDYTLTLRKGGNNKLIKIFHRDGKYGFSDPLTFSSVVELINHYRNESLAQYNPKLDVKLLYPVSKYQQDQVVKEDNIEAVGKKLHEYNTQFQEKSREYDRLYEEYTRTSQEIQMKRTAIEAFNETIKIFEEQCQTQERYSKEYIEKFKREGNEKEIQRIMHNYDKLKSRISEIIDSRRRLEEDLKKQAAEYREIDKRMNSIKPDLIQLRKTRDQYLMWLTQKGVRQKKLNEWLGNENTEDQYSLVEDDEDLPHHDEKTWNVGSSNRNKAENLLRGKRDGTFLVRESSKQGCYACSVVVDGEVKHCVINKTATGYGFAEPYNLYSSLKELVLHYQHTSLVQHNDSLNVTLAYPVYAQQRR

Columns and labels:
[1] = tested on: HCC1954 cells with PIK3CA mutation; assay: Cell activity test in vitro, anti-proliferation by CTG method, HCC1954; conditions: read-out: HCC1954 Cell IC50, 72 hours
PI3K α = PI3K α (Homo sapiens, UniProt P42336); assay: Enzyme activity test in vitro (ADP-Glo lipid kinase), PI3K α; conditions: read-out: PI3K α IC50, ATP 40 μM, 120 min
[2] = In vivo plasma/brain tissue distribution study in male SD rats
PI3K γ = PI3K γ (Homo sapiens, UniProt P48736); assay: Enzyme activity test in vitro (ADP-Glo lipid kinase), PI3K γ; conditions: read-out: PI3K γ IC50, ATP 25 μM, 120 min
Rat plasma-protein = Rat plasma-protein binding; type: in vitro ADME
PI3K δ = PI3K δ (Homo sapiens, UniProt O00329); assay: Enzyme activity test in vitro (ADP-Glo lipid kinase), PI3K δ; conditions: read-out: PI3K δ IC50, ATP 40 μM, 120 min
[3] = In vivo DMPK study in male CD-1 mice
[4] = tested on: MDCK cells with high expression of MDR1; assay: MDCK-MDR1 permeability test; type: in vitro ADME; conditions: 2 μM, pH 7.4, 2.5 hours
PI3K β = PI3K β (Homo sapiens, UniProt P42338); assay: Enzyme activity test in vitro (ADP-Glo lipid kinase), PI3K β; conditions: read-out: PI3K β IC50, ATP 40 μM, 120 min
[5] = oral 10 mpk, cerebrospinal fluid

In the case of CO/N=C(\N)C(C)Nc1ccc2c(c1)OCCn1cc(N3C(=O)OC[C@H]3C(F)F)nc1-2 (some centres unmarked), the IC50 [1] is reported as 207 nM, the IC50 (PI3K α) is reported as 1.22 nM and the “Cerebrospinal fluid/plasma free drug ratio” value ([2]; oral 10 mpk) is reported as 0.21. For the same compound, the “AUC, Brain tissue” value ([2]; oral 10 mpk, brain tissue) was 2.082 µM·h, the “Cmax, Brain tissue” value ([2]; oral 10 mpk, brain tissue) was 1.043 µM and the “T1/2, Brain tissue” value ([2]; oral 10 mpk, brain tissue) was 1.45 h. The “Tmax, Brain tissue” value ([2]; oral 10 mpk, brain tissue) was 0.25 h, the “AUC, Cerebrospinal fluid” value [2, 5] was 1.077 µM·h and the “T1/2, Cerebrospinal fluid” value [2, 5] was 1.38 h. For the same compound, the “Tmax, Cerebrospinal fluid” value [2, 5] was 0.25 h, the “AUC, Plasma” value ([2]; oral 10 mpk, plasma) was 21.717 µM·h and the “T1/2, Plasma” value ([2]; oral 10 mpk, plasma) was 1.72 h. The “Tmax, Plasma” value ([2]; oral 10 mpk, plasma) was 0.25 h, the Cmax ([2]; read-out: Cmax, Cerebrospinal fluid, oral 10 mpk, cerebrospinal fluid) was 0.552 µM and the Cmax ([2]; read-out: Cmax, Plasma, oral 10 mpk, plasma) was 10.3 µM. The IC50 (PI3K γ) was 35.9 nM, the “Rat plasma-protein binding, unbound %” value (Rat plasma-protein) was 23.9% and the IC50 (PI3K δ) was 16.9 nM. The “Intravenous injection Cl” value ([3]; 1 mg/kg intravenous) was 5.30 mL/min/kg, the “Intravenous injection T1/2” value ([3]; 1 mg/kg intravenous) was 1.13 h and the “Intravenous injection Vd” value ([3]; 1 mg/kg intravenous) was 0.372 L/kg. For the same compound, the “Oral DNAUC” value ([3]; 3 mg/kg oral administration) was 6441 nM · h/mpk, the “Oral F %” value ([3]; 3 mg/kg oral vs 1 mg/kg intravenous) was 89.1% and the Cmax ([3]; read-out: Oral Cmax, 3 mg/kg oral administration) was 9.35 µM. The “Permeability, MDCK-MDR1, A to B” value [4] was 16.9 10^−6 cm/s, the “Permeability, MDCK-MDR1, B to A” value [4] was 32.8 10^−6 cm/s and the Permeability, MDCK-MDR1, Efflux Ratio [4] was 1.94. The IC50 (PI3K β) was 705 nM.
Work on CC(Nc1ccc2c(c1)OCCn1cc(N3C(=N)OC[C@H]3C(F)F)nc1-2)C(N)=O (some centres unmarked) yielded an IC50 [1] of 244 nM, an IC50 (PI3K α) of 5.52 nM and an IC50 (PI3K γ) greater than 10000 nM. For the same compound, the IC50 (PI3K δ) was greater than 10000 nM and the IC50 (PI3K β) was greater than 10000 nM.
CN=C1OC[C@@H](C(F)F)N1c1cn2c(n1)-c1ccc(NC(C)C(N)=O)cc1OCC2 (some centres unmarked) showed an IC50 [1] of 187 nM, an IC50 (PI3K α) of 18.9 nM and an IC50 (PI3K γ) greater than 10000 nM. The IC50 (PI3K δ) was greater than 10000 nM and the IC50 (PI3K β) was greater than 10000 nM.
